Data on two molecules can be found in ChEMBL document CHEMBL3046380, “In Vitro and In Vivo Characterization of Alpha-1A Selective Agonists and Their Utility for Stress Incontience” (Med Chem Res, 2004).

The chains behind the UniProt entries cited, without tags or fusion partners.
UniProt P15823, whole entry: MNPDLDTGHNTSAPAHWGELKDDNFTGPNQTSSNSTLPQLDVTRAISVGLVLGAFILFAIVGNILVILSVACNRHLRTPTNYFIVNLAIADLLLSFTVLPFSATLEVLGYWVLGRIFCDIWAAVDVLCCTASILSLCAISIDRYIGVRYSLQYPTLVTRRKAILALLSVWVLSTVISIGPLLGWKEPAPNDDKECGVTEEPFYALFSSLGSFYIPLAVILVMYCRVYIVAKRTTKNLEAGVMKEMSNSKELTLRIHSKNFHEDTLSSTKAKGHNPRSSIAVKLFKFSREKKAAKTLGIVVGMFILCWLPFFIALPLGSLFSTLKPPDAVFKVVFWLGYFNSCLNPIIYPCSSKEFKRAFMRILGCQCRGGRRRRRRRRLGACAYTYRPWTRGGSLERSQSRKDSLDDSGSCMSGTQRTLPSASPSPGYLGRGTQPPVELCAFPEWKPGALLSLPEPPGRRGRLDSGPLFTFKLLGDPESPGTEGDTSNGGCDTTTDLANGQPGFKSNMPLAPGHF

For the assay, the target named is Alpha-1B adrenergic receptor (Rattus norvegicus) (UniProt P15823). In words: Agonist activity at alpha1B adrenoreceptor in Rattus norvegicus (rat) spleen.

SMILES strings stand for the structures. Calls of active or inactive are those of the source. The calls are words filed in the database; no cut-off is given here.

Turning to `Cn1cnc(C2CCCc3c(NS(C)(=O)=O)cccc32)c1` (configuration not stated), the pEC50 result was “inactive”.

As to `CCS(=O)(=O)Nc1cccc(Cc2c[nH]cn2)c1C`, the pEC50 result is “inactive”.
